Measured values taken from patent publication US12158399B2, “CaMKK2 inhibitor compositions and methods of using the same” (Duke University, priority 2016, dated 2024).

Protein sequences, listed by entry. Tags and fused reporters are not part of them.
UniProt Q96RR4, whole entry: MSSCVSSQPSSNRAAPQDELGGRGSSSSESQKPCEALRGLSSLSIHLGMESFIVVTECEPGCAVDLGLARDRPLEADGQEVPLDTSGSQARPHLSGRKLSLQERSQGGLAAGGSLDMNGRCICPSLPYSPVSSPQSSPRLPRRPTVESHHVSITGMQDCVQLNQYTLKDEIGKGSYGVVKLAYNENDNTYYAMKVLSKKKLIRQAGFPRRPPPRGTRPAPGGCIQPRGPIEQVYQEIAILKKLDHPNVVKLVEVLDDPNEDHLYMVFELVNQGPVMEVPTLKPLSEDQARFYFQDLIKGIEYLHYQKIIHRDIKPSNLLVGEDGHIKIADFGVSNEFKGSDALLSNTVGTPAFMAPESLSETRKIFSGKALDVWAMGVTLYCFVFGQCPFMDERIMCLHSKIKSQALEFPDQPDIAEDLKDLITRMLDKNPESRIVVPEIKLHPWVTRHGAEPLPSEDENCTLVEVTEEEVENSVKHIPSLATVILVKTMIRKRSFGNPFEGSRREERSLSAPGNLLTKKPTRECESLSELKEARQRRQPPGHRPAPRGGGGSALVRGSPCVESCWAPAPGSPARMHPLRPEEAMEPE

How the values were obtained:
MMTV-PyMT mammary tumor = conditions: MMTV-PyMT mice treated daily, indicated doses
CaMKK2 = CaMKK2 (Homo sapiens, UniProt Q96RR4); conditions: cited from earlier work

O=C(O)c1ccc2c3c1cccc3c(=O)n1c3ccccc3nc21 [STO-609]
tumor growth (fold change in tumor volume) (MMTV-PyMT mammary tumor): inhibited in dose responsive manner | affinity for CaMKK2 relative to CaMKK1 (CaMKK2): approximately 5 fold
